The entries are a selection whose mix differs from that of the whole data set. Activity calls are given as the source filed them.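 How the source made its calls: active means every replicate showing at least 50% inhibition; inconclusive means mean inhibition at least 50% but not in every replicate; inactive means the rest.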

Amino acid sequences for entries named in this document (tags omitted). A change or cut given only in a name is not applied to a line headed by its entry.
UniProt P43351: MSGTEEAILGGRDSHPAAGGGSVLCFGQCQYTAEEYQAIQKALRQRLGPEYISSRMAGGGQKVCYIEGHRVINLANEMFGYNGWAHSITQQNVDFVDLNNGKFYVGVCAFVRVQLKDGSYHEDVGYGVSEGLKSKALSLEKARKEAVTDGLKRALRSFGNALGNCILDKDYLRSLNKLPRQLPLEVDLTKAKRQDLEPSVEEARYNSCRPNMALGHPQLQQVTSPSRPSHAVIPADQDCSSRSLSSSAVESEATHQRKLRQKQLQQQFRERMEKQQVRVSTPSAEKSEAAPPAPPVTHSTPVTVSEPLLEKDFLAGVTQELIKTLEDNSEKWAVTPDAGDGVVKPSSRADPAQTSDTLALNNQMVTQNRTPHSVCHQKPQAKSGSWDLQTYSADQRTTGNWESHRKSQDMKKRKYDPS

This assay deals with DNA repair protein RAD52 homolog (Homo sapiens) (UniProt P43351). As to the kind of experiment: blockers of RAD52 strand annealing activity – biochemical, FRET, single point, set 2, primary screen (AID 651710). The settings on record: recombinant RAD52 DNA annealing, FRET fluorescence; at 18.7 µM; hits give high values.
A word on the inhibition: it is the drop in the measured response relative to a control, in per cent. In the case of `O=C(Nc1cc([As](=O)(O)O)ccc1O)c1ccccc1`, the inhibition is inactive: 16.8%. Next, `O=P1(N(CCCl)CCCl)OCCCS1` (stereo unspecified): inactive: -2.46%; `O=C(O)CNc1ccc([As](=O)(O)O)cc1`: inactive: 0.153%; `COC(=O)C1(C)COP(=O)(Nc2ccccc2)OC1` (stereo unspecified): inactive: -2.5%.

Regarding `O=[N+]([O-])c1cccc(NC2=NCC(CBr)S2)c1` (stereo unspecified), the inhibition was inactive: -9.39%. Next, `O=[N+]([O-])c1ncn(CCn2ncnc2[N+](=O)[O-])n1`: inactive: -8.76%. On to `CC(C)(C)C(=O)NC(Sc1ccncn1)C(Cl)(Cl)Cl` (stereo unspecified), for which the inhibition is inactive: -1.02%. Next, `O=[N+]([O-])c1cc([N+](=O)[O-])c(CCNc2ccccc2)c([N+](=O)[O-])c1`: inactive: -4.78%; `Cc1ccc(NP(=O)(Oc2ccccc2)Oc2ccccc2)nc1`: inactive: -11.4%. To `COc1ccc(C2=NCC(CBr)S2)cc1` (stereo unspecified) belongs inactive: 9.94%; to `c1cc(-c2nn[nH]n2)ccc1-c1nn[nH]n1`, inactive: -13.5%; to `CC(C)c1nc(Nc2ccccc2)n(P(=O)(N(C)C)N(C)C)n1`, inactive: 2.77%. Next, `CC(C)=N/N=C(\N)N[N+](=O)[O-]`: inactive: 1.01%. Regarding `CCN(/C(=N/P(=O)(N1CCOCC1)N1CCOCC1)N1CCOCC1)c1ccc(OC)cc1`, the inhibition is inactive: -2.27%. To `C[N+]1=C2C=CC=CC=C2SC12C([N+](=O)[O-])=CC([N+](=O)[O-])=C[C-]2[N+](=O)[O-]` (stereo unspecified) belongs inactive: -15%.

On to `Nc1ccc([As](=O)(O)c2ccc(N)cc2)cc1`, for which the inhibition is inactive: -10.5%. To `Clc1ccc(Cl)c(NC2=NCC(CBr)S2)c1` (stereo unspecified) belongs inactive: -16.2%. As to `Cc1ccc(OP(=O)(Nc2nccs2)Oc2ccc(C)cc2)cc1`, the inhibition is inactive: -12.4%. To `COc1ccccc1OP(=O)(Nc1ccc(C)cn1)Oc1ccccc1OC` belongs inactive: -3.99%; to `Cc1ccc(N/C(=N/P(=O)(N2CCOCC2)N2CCOCC2)N2CCOCC2)cc1`, inactive: -5.94%; to `CN(C(=O)Cc1ccc(Cl)c(Cl)c1)[C@H]1CCCC[C@H]1N1CCCC1`, inactive: 8.65%. Next, `NC(=O)c1cc([N+](=O)[O-])cc([N+](=O)[O-])c1N`: inactive: -32.2%. Next, `O=C(NC(Sc1ccncn1)C(Cl)(Cl)Cl)c1ccccc1` (stereo unspecified): inactive: -4.89%; `Nc1cc(N)c2nonc2c1[N+](=O)[O-]`: inactive: -30.7%; `CC(C)CC(=O)NC(Sc1ccc(Cl)cc1)C(Cl)(Cl)Cl` (stereo unspecified): inactive: -6.42%. Consider `CCn1c(=O)n(C2CCN(CC3CCCCCCC3)C[C@H]2CO)c2ccccc21` (stereo partly specified), for which the inhibition is inactive: 8.2%.

Turning to `Cc1ccc(NP(=O)(Oc2ccccc2F)Oc2ccccc2F)nc1`, the inhibition was inactive: -7.37%.

`CN(C(=O)Cc1ccc(Cl)c(Cl)c1)[C@H]1CCCC[C@@H]1N1CCCC1`: the inhibition is inactive: -6.53%.

On to `O=P(Nc1nc2ccc(Cl)cc2s1)(c1ccccc1)c1ccccc1`, for which the inhibition is inactive: -4.32%. To `CN(C)P(=O)(N(C)C)n1c(Nc2ccccc2)nnc1-c1ccccc1` belongs inactive: 2.92%. As for `CCCC1OP(N)(=O)OCC1CC` (stereo unspecified), the inhibition is inactive: -1.26%.

Regarding `CC(=O)Nc1ccc([As](=O)(O)O)cc1`, the inhibition is inactive: -0.67%. On to `O=C(O)c1ccccc1[As](=O)(O)O`, for which the inhibition is inactive: -5.53%.

Regarding `Nc1cccc2ccc([As](=O)(O)O)cc12`, the inhibition was inactive: -38.7%. To `CN(C(=O)Cc1ccccc1)C1CC[C@@]2(CCCO2)C[C@@H]1N1CCCC1` (stereo partly specified) belongs inactive: -63.5%; to `O=P1(N(CCCl)CCCl)OCCC2CCCCN21` (stereo unspecified), inactive: 3.76%. Next, `Cc1ccc(NP(=O)(Oc2cccc(C)c2)Oc2cccc(C)c2)nc1`: inactive: 1.68%; `c1ccc(-c2nn[nH]n2)c(-c2nn[nH]n2)c1`: inactive: -16.9%; `CCNC(=S)/N=C(\N)N[N+](=O)[O-]`: inactive: -5.79%. With `O=C(NC1CCS(=O)(=O)C1)NP(=S)(Oc1ccccc1)Oc1ccccc1` (stereo unspecified), the inhibition was inactive: -1.9%. To `O=c1c2cc([N+](=O)[O-])ccc2[nH]c2c([N+](=O)[O-])cc([N+](=O)[O-])cc12` belongs inactive: -9.92%; to `CN(C)C(=O)Oc1noc2ccccc12`, inactive: -7.25%. Regarding `CC(NC(=O)COC(=O)C(O)(c1ccccc1)c1ccccc1)c1ccccc1` (stereo unspecified), the inhibition was inactive: -7.33%. Next, `Cc1ccccc1OP(=O)(Nc1ccccn1)Oc1ccccc1C`: inactive: -17.5%.

On to `O=C(OC1CN2CCC1CC2)c1ccccc1` (stereo unspecified), for which the inhibition is inactive: -6.42%. Next, `Cc1ccc(OP(=O)(Nc2ccccn2)Oc2ccc(C)cc2)cc1`: inactive: -21.7%; `CC(C)(C)C(=O)NC(Sc1ccccc1)C(Cl)(Cl)Cl` (stereo unspecified): inactive: -4.85%; `CCc1cc(O)c([N+](=O)[O-])c(C)c1[N+](=O)[O-]`: inactive: -13.9%. For `CCOc1ccc(C2=NCC(CBr)S2)cc1` (stereo unspecified), the inhibition is inactive: -5.17%. Take `CC(=O)Nc1ccc(Oc2c([N+](=O)[O-])cc([N+](=O)[O-])cc2[N+](=O)[O-])cc1`: the inhibition is inactive: -9.33%. Next, `CC(=O)Nc1ccc([As](=O)(O)O)c(O)c1`: inactive: -4.69%; `C[C@H]1OP(=O)(Oc2ccccc2)C[C@@H]2O[C@@H]21` (stereo partly specified): inactive: -5.6%; `C[C@@H]1C=CCP(=O)(Oc2ccccc2)O1` (stereo partly specified): inactive: 1.42%.

`Cc1ccccc1CN(C)C(=O)COC(=O)C(O)(c1ccccc1)c1ccccc1`: the inhibition is inactive: -15%.

Consider `COC(=O)C1(C)COP(=O)(NCc2ccccc2)OC1` (stereo unspecified), for which the inhibition is inactive: -5.94%. Next, `CC(=O)c1ccc(N2CC2c2ccncc2)cc1` (stereo unspecified): inactive: -6.35%; `N#C/C(=C\c1ccc(N(CCBr)CCBr)cc1)C(N)=O`: inactive: 0.155%. To `C[C@H]1OP(=O)(Oc2ccccc2)[C@H](O)[C@H](O)[C@H]1N=[N+]=[N-]` (stereo partly specified) belongs inactive: -1.03%; to `O=P(Nc1nc2ccccc2s1)(c1ccccc1)c1ccccc1`, inactive: -0.229%. As to `O=P(Nc1ccccn1)(c1ccc(Br)cc1)c1ccc(Br)cc1`, the inhibition is inactive: -2.89%. Next, `CN(C)C1(CNC(=O)c2ccc(Cl)c(S(N)(=O)=O)c2)CCCCC1`: inactive: -7.54%; `COc1ccc(N)c([N+](=O)[O-])c1[N+](=O)[O-]`: inactive: 7.19%; `Nc1ccc(CCCCOc2ccccc2)cc1`: inactive: -13.4%. As for `C(Cc1nn[nH]n1)Cc1nn[nH]n1`, the inhibition is inactive: -6.42%. Next, `Nc1ccc([As](=O)(O)c2ccc([N+](=O)[O-])cc2)cc1`: inactive: -5.63%. To `C/C(N)=N\P(=O)(OCc1ccccc1)OCc1ccccc1` belongs inactive: -3.93%; to `O=[As](O)(c1ccccc1)c1ccc(O)cc1`, inactive: 8.56%; to `O=[N+]([O-])c1ncn(CCn2cnc([N+](=O)[O-])n2)n1`, inactive: -12.1%. To `CC(=O)NC(SC(=S)N(C)C)C(Cl)(Cl)Cl` (stereo unspecified) belongs inactive: -18.9%; to `CN(C)C1(CNC(=O)c2ccc(S(C)(=O)=O)cc2)CCCCC1`, inactive: -6.84%. On to `CCCC1OP(=O)(Nc2ccccc2)OCC1CC` (stereo unspecified), for which the inhibition was inactive: -3.17%. For the molecule `O=C(/C=C/c1ccccc1)OC1CN2CCC1CC2` (stereo unspecified), the inhibition was inactive: -5.33%. For the molecule `CC1CCC(C(C)C)C(OP(=O)(Nc2ccccn2)c2ccccc2)C1` (stereo unspecified), the inhibition was inactive: -8.93%. Consider `Cc1ccc(C(=O)OC2CN3CCC2CC3)cc1` (stereo unspecified), for which the inhibition was inactive: -8.19%.

Consider `Nc1cccc([As](=O)(O)c2ccccc2)c1`, for which the inhibition is inactive: -1.14%. To `O=[As](O)(c1cccs1)c1cccs1` belongs inactive: -6.35%; to `NS(=O)(=O)c1cccc(NC(=O)COC(=O)C(O)(c2ccccc2)c2ccccc2)c1`, inactive: -9.32%. To `Cc1ccc(S(=O)(=O)N(CCCN)CCCc2c(C)nc(N)[nH]c2=O)cc1` belongs inactive: -17.6%; to `CC(C)(C)C(=O)NC(Sc1ncccn1)C(Cl)(Cl)Cl` (stereo unspecified), inactive: -11.4%. Next, `O=P1(N(CCCl)CCCl)NCCC(C(F)(F)F)O1` (stereo unspecified): inactive: -10.8%.

As to `CCOP(=O)(NC(=NC(C)c1ccccc1)NC(C)c1ccccc1)OCC` (stereo unspecified), the inhibition was inactive: -10.7%. To `CCC1=CC2Cc3nc4ccc(Cl)cc4c(N)c3C(C1)C2` (stereo unspecified) belongs inactive: -0.776%; to `CCOP(=O)(Nc1ccc(C)cn1)OCC`, inactive: -4.85%; to `CN(CCCl)Cc1cc(Cl)c(NC2=NCCN2)c(Cl)c1`, active: 71.2%. To `CN(C(=O)Cc1ccc(Cl)c(Cl)c1)C1CCCC[C@@H]1N1CCCC1` (stereo partly specified) belongs inactive: -6.51%.

`CC(C)/C=N\N=C(\N)N[N+](=O)[O-]`: the inhibition is inactive: -11.8%. To `CN(C(=O)Cc1ccc(Cl)c(Cl)c1)[C@@H]1CCCC[C@H]1N1CCCC1` belongs inactive: 6.09%; to `COc1ccccc1CNC(=O)COC(=O)C(O)(c1ccccc1)c1ccccc1`, inactive: 1.1%; to `O=[As](O)(c1cccc(O)c1)c1cccc(O)c1`, inactive: -1.06%. To `O=C(OC1CN2CCC1CC2)c1ccc(Cl)cc1` (stereo unspecified) belongs inactive: 8.57%; to `CS(=O)(=O)c1ccc(Cl)c(NC(=O)COC(=O)C(O)(c2ccccc2)c2ccccc2)c1`, inactive: 3.56%. To `O=[As](O)(O)c1cccnc1` belongs inactive: -13.6%. For the molecule `COc1cc(C(=O)NCC2(N3CCOCC3)CCCCC2)cc(Cl)c1OC(C)C`, the inhibition is inactive: -17.2%. To `CCOP(=O)(Nc1cccc2ccccc12)OCC` belongs inactive: -12.9%; to `Nc1cccc2c([As](=O)(O)O)cccc12`, inactive: -113%; to `Cc1ccc(NCCc2c([N+](=O)[O-])cc([N+](=O)[O-])cc2[N+](=O)[O-])cc1`, inactive: -1.19%. Next, `CCCOP(=S)(Nc1nc(N)cc(=O)[nH]1)OCCC`: inactive: -18.6%; `Nc1ccccc1[As](=O)(O)c1ccccc1`: inactive: -4.28%. To `O=C(O)COc1ccc([As](=O)(O)O)cc1[N+](=O)[O-]` belongs inactive: -14.3%; to `O=P(Nc1nccs1)(Oc1ccccc1)Oc1ccccc1`, inactive: -6.13%; to `CCOP1(=S)c2c(C)nn(CCC#N)c2N=C(c2ccccc2F)N1C` (stereo unspecified), inactive: -1.77%.

(Values after PubChem BioAssay AID651710 (Broad Institute, 2012).)
